Measurements reported in patent US11802133B2, “Heterocyclic compounds as monoacylglycerol lipase inhibitors” (Hoffmann-La Roche Inc., priority 2018, dated 2023).

The chains behind the UniProt entries cited, without tags or fusion partners.
UniProt Q99685, whole entry: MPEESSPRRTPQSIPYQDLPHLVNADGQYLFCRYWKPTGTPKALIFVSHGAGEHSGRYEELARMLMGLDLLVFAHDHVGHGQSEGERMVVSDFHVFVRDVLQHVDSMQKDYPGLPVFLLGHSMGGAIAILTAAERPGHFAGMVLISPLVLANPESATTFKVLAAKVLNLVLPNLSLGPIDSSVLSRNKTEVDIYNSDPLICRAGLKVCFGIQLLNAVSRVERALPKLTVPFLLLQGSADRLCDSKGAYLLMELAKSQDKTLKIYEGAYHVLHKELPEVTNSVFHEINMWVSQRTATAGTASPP

Target: MAGL (recombinant wild-type) (Homo sapiens (Human), UniProt Q99685)
Assay: 4-NPA assay: MAGL inhibitory activity by hydrolysis of 4-nitrophenylacetate (absorbance at 405 nm)
Conditions: read-out: IC50 MAGL; measured in 4-NPA assay (footnote [a]); 1 nM MAGL, 300 μM 4-nitrophenylacetate

## CC(C)(C)c1coc(CC2CCN(C(=O)N3CC[C@H]4OCC(=O)N[C@H]4C3)CC2)n1
  IC50: 5.7 µM
